Literature values, collected in patent US6113907A, “Pharmaceutical grade St. John's Wort” (priority 1997, dated 2000).
pIC50: −log10 of the molar value.

Tested on: serotonin uptake
Conditions: cited from earlier work

For `CN(C)CCCN1c2ccccc2CCc2ccc(Cl)cc21` [Clomipramine, clomipramine], the “serotonin uptake inhibition IC50” value (equivalent of 0.9 nM) is given as ~ 0.3 ng/ml and the pIC50 (read-out: serotonin uptake inhibition IC50) is given as 9.05.
